This is an account of results in patent US20160045486A1, “DOPAMINE RECEPTOR LIGANDS WITH ENHANCED DURATION OF ACTION” (priority 2008, published 2016).

Amino acid sequences for entries named in this document (tags omitted). A change or cut given only in a name is not applied to a line headed by its entry.
UniProt P14416, whole entry: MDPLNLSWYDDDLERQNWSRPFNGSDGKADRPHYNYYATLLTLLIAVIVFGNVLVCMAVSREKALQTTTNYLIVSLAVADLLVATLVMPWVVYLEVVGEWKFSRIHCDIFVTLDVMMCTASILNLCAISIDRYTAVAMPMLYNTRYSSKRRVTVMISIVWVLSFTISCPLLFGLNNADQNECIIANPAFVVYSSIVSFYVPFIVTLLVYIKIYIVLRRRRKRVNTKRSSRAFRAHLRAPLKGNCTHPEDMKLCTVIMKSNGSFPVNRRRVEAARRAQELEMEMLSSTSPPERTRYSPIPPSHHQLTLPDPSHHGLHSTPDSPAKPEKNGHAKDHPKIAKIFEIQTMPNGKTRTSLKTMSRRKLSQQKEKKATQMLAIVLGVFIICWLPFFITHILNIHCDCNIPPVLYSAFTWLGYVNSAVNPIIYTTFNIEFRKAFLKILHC

pKi: −log10 of the molar value.

The assay addresses T1, Cloned human receptors D2L (C-6) (Homo sapiens, UniProt P14416).
T1 construct: expressed in transfected cells; host or cells: C-6 cells
Description: Binding affinity, cloned human D2L receptor (C-6). The conditions noted are these: C-6 cells; read-out: K0.5, Cloned human receptors D2L (C-6).

Take `Oc1cc2c(cc1O)[C@@H]1c3ccccc3CN[C@H]1CC2` (relative stereo) [dihydrexidine, trans-10,11-dihydroxy-5,6,6a,7,8,12b-hexahydrobenzo[a]phenanthridine, reference compound]: the pKi was 6.74.
